One test deals with HSP90α (Homo sapiens, UniProt P07900). Put plainly: Affinity to HSP90α. In kind it is binding. To be noted: read-out: HSP90 affinity.
The subject of a further test is Her-2 (HSP90 client). Put plainly: Her-2 (HSP90 client) degradation (client depletion). In kind it is cell-based. As to conditions: read-out: Client Depletion; Her-2 degradation.

In the case of `CCCC1C/C=C/CCCCC(=NOCC(=O)N2CCCCC2)Cc2c(Cl)c(O)cc(O)c2C(=O)O1` (stereo not drawn), the IC50 was determined as 0.543 µM at HSP90α and 4.27 µM with Her-2 (HSP90 client).
The matching figures for `CCN(CC)C(=O)CO/N=C1/C=C/CC/C=C/C[C@@H](C)OC(=O)c2c(O)cc(O)cc2C1`: 0.543 µM and 2.96 µM.
The matching figures for `CCN(CC)C(=O)CO/N=C1\C=C\CC/C=C/C[C@@H](C)OC(=O)c2c(O)cc(O)cc2C1`: 0.601 µM and 4.11 µM.

(Values after US10239856B2.)
